Tests used:
Assay in all cases: SPR single-cycle kinetics (Biacore 8K+), TCE captured on Protein G chip, LRRC15 ECD as analyte, 1:1 fit, average of 3 or 4 replicates
[1] = target: T1, cyno LRRC15 recombinant extracellular domain protein (cyno, UniProt G7NYR2 22-538)
T1 construct: extracellular domain; also called LRRC15 cyno
Protocol: (§1) The affinities of the T-cell engagers to human, mouse and cyno LRRC15 recombinant proteins were measured by Surface Plasmon Resonance using a Single-Cycle Kinetics (SCK) method on a Biacore 8K+ system (CYTIVA).
(§2) The T-cell engagers were captured on a PROTEIN G chip and exposed to a series of increasing concentrations of human, mouse or cyno LRRC15 recombinant extracellular domain proteins (Acro Biosystems PROTEIN G). The fully corrected binding data were globally fitted to a 1:1 binding model to determine the KD using the Biacore™ Insight Evaluation Software (CYTIVA). Coloured sensorgram trace represents the raw data and black line the global 1:1 fit to that data. Values for kinetics parameters is shown in Table 8 are averages for 3 or 4 replicate sets of measurements.

[2] = target: T2, human LRRC15 recombinant extracellular domain protein (human, UniProt Q8TF66 22-538)
T2 construct: extracellular domain; also called LRRC15 human
T2 sequence (looked up): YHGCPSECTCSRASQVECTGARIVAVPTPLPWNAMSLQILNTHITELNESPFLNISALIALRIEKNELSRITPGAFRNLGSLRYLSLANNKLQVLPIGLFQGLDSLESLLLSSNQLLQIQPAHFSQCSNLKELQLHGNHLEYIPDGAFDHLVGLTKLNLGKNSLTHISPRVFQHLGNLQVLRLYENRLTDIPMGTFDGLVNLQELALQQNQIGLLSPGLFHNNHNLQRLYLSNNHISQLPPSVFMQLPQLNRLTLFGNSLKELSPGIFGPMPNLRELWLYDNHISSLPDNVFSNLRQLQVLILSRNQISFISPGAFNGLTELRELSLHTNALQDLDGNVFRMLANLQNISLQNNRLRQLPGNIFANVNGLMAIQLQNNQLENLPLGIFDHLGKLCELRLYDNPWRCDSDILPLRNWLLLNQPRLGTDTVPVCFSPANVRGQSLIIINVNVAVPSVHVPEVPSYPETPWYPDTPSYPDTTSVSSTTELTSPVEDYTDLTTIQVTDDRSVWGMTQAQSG
Protocol: as §1, §2

[3] = target: T3, mouse LRRC15 recombinant extracellular domain protein (mouse, UniProt Q80X72 22-536)
T3 construct: extracellular domain; also called LRRC15 mouse
Protocol: as §1, §2

B1: TPP-46959 (other)
light: not shown
heavy 1: EVQLVQSGAEVKKPGASVKVSCKASGYKFSSYWIEWVKQAPGQGLEWIGEILPGSDTTNYAQKFQDRVTFTSDTSISTAYMELSRLRSDDTAVYYCARDRGNYRAWFGYWGQGTLVTVSSASTKGPSVFPLAPSSKSTSGGTAALGCLVKDYFPEPVTVSWNSGALTSGVHTFPAVLQSSGLYSLSSVVTVPSSSLGTQTYICNVNHKPSNTKVDKRVEPKSCDKTGGSEVQLVESGGGLVQPGGSLRLSCVASGDVHKINFLGWYRQAPGKEREKVAHISIGDQTDYADSAKGRFTISRDESKNMVYLQMNSLKPEDTAVYFCRAFSRIYPYDYWGQGTLVTVSSGGGGSTHTCPPCPAPPVAGPSVFLFPPKPKDTLMISRTPEVTCVVVDVKHEDPEVKFNWYVDGVEVHNAKTKPREEQYNSTYRVVSVLTVLHQDWLNGKEYKCKVSNKALPAPIEKTISKAKGQPREPQVCTLPPSREEMTKNQVSLSCAVKGFYPSDIAVEWESNGQPENNYKTTPPVLDSDGSFFLVSKLTVDKSRWQQGNVFSCSVMHEALHNRFTQKSLSLSPGK
heavy 2: EVQLVQSGAEVKKPGASVKVSCKASGYKFSSYWIEWVKQAPGQGLEWIGEILPGSDTTNYAQKFQDRVTFTSDTSISTAYMELSRLRSDDTAVYYCARDRGNYRAWFGYWGQGTLVTVSSASTKGPSVFPLAPSSKSTSGGTAALGCLVKDYFPEPVTVSWNSGALTSGVHTFPAVLQSSGLYSLSSVVTVPSSSLGTQTYICNVNHKPSNTKVDKRVEPKSCDKTGGSEVQLLESGGGLVQPGGSLRLSCAASGFTFTDYAIGWFRQAPGKEREGVSCIRVSDGSTYYADSVKGRFTISRDSSKNTLYLQMNSLRAEDTAVYYCAAGSLYTCVQSIVWPARPYYDMDYWGQGTLVTVSSGGGGSTHTCPPCPAPPVAGPSVFLFPPKPKDTLMISRTPEVTCVVVDVKHEDPEVKFNWYVDGVEVHNAKTKPREEQYNSTYRVVSVLTVLHQDWLNGKEYKCKVSNKALPAPIEKTISKAKGQPREPQVYTLPPCREEMTKNQVSLWCLVKGFYPSDIAVEWESNGQPENNYKTTPPVLDSDGSFFLYSKLTVDKSRWQQGNVFSCSVMHEALHNHYTQKSLSLSPGK
notes: T-cell engager in the CD8/TCR format: 2x LRRC15 Fab, 1x TCR VHH, 1x CD8 VHH; Residue 55 of L-CDR2 is E
Question: Which koff [1] does the source give for B1 here?
Answer: The koff was 0.000568 s⁻¹.

Question: And the kon [1]?
Answer: The kon was 189000 M⁻¹ s⁻¹.

Question: What about the koff [2] of the same binder?
Answer: The koff was 0.000468 s⁻¹.

Question: What about the kon [2] of the same binder?
Answer: Its kon is 351000 M⁻¹ s⁻¹.

Question: And the Kd [3]?
Answer: Its Kd is 0.608 nM.

Question: What about the koff [3] of the same binder?
Answer: The koff was 0.000144 s⁻¹.

Question: And the kon [3]?
Answer: The kon was 238000 M⁻¹ s⁻¹.

B2: TPP-46957 (other)
light: not shown
heavy 1: EVQLVQSGAEVKKPGASVKVSCKASGYKFSSYWIEWVKQAPGQGLEWIGEILPGSDTTNYAQQFQDRVTFTSDTSISTAYMELSRLRSDDTAVYYCARDRGNYRAWFGYWGQGTLVTVSSASTKGPSVFPLAPSSKSTSGGTAALGCLVKDYFPEPVTVSWNSGALTSGVHTFPAVLQSSGLYSLSSVVTVPSSSLGTQTYICNVNHKPSNTKVDKRVEPKSCDKTGGSEVQLVESGGGLVQPGGSLRLSCVASGDVHKINFLGWYRQAPGKEREKVAHISIGDQTDYADSAKGRFTISRDESKNMVYLQMNSLKPEDTAVYFCRAFSRIYPYDYWGQGTLVTVSSGGGGSTHTCPPCPAPPVAGPSVFLFPPKPKDTLMISRTPEVTCVVVDVKHEDPEVKFNWYVDGVEVHNAKTKPREEQYNSTYRVVSVLTVLHQDWLNGKEYKCKVSNKALPAPIEKTISKAKGQPREPQVCTLPPSREEMTKNQVSLSCAVKGFYPSDIAVEWESNGQPENNYKTTPPVLDSDGSFFLVSKLTVDKSRWQQGNVFSCSVMHEALHNRFTQKSLSLSPGK
heavy 2: EVQLVQSGAEVKKPGASVKVSCKASGYKFSSYWIEWVKQAPGQGLEWIGEILPGSDTTNYAQQFQDRVTFTSDTSISTAYMELSRLRSDDTAVYYCARDRGNYRAWFGYWGQGTLVTVSSASTKGPSVFPLAPSSKSTSGGTAALGCLVKDYFPEPVTVSWNSGALTSGVHTFPAVLQSSGLYSLSSVVTVPSSSLGTQTYICNVNHKPSNTKVDKRVEPKSCDKTGGSEVQLLESGGGLVQPGGSLRLSCAASGFTFTDYAIGWFRQAPGKEREGVSCIRVSDGSTYYADSVKGRFTISRDSSKNTLYLQMNSLRAEDTAVYYCAAGSLYTCVQSIVWPARPYYDMDYWGQGTLVTVSSGGGGSTHTCPPCPAPPVAGPSVFLFPPKPKDTLMISRTPEVTCVVVDVKHEDPEVKFNWYVDGVEVHNAKTKPREEQYNSTYRVVSVLTVLHQDWLNGKEYKCKVSNKALPAPIEKTISKAKGQPREPQVYTLPPCREEMTKNQVSLWCLVKGFYPSDIAVEWESNGQPENNYKTTPPVLDSDGSFFLYSKLTVDKSRWQQGNVFSCSVMHEALHNHYTQKSLSLSPGK
notes: T-cell engager in the CD8/TCR format: 2x LRRC15 Fab, 1x TCR VHH, 1x CD8 VHH
Question: For B2, which koff [1] is on record?
Answer: Its koff is 0.00075 s⁻¹.

Question: And the kon [1]?
Answer: Its kon is 165000 M⁻¹ s⁻¹.

Question: What about the koff [2] of the same binder?
Answer: Its koff is 0.0006 s⁻¹.

Question: What about the kon [2] of the same binder?
Answer: The kon was 264000 M⁻¹ s⁻¹.

Question: What about the Kd [3] of the same binder?
Answer: Its Kd is 0.953 nM.

Question: And the koff [3]?
Answer: The koff was 0.000188 s⁻¹.

Question: What about the kon [3] of the same binder?
Answer: The kon was 198000 M⁻¹ s⁻¹.

B3: TPP-46958 (other)
light: not shown
heavy 1: EVQLVQSGAEVKKPGASVKVSCKASGYKFSSYWIEWVKQAPGQGLEWIGEILPGSDATNYAQKFQDRVTFTSDTSISTAYMELSRLRSDDTAVYYCARDRGNYRAWFGYWGQGTLVTVSSASTKGPSVFPLAPSSKSTSGGTAALGCLVKDYFPEPVTVSWNSGALTSGVHTFPAVLQSSGLYSLSSVVTVPSSSLGTQTYICNVNHKPSNTKVDKRVEPKSCDKTGGSEVQLVESGGGLVQPGGSLRLSCVASGDVHKINFLGWYRQAPGKEREKVAHISIGDQTDYADSAKGRFTISRDESKNMVYLQMNSLKPEDTAVYFCRAFSRIYPYDYWGQGTLVTVSSGGGGSTHTCPPCPAPPVAGPSVFLFPPKPKDTLMISRTPEVTCVVVDVKHEDPEVKFNWYVDGVEVHNAKTKPREEQYNSTYRVVSVLTVLHQDWLNGKEYKCKVSNKALPAPIEKTISKAKGQPREPQVCTLPPSREEMTKNQVSLSCAVKGFYPSDIAVEWESNGQPENNYKTTPPVLDSDGSFFLVSKLTVDKSRWQQGNVFSCSVMHEALHNRFTQKSLSLSPGK
heavy 2: EVQLVQSGAEVKKPGASVKVSCKASGYKFSSYWIEWVKQAPGQGLEWIGEILPGSDATNYAQKFQDRVTFTSDTSISTAYMELSRLRSDDTAVYYCARDRGNYRAWFGYWGQGTLVTVSSASTKGPSVFPLAPSSKSTSGGTAALGCLVKDYFPEPVTVSWNSGALTSGVHTFPAVLQSSGLYSLSSVVTVPSSSLGTQTYICNVNHKPSNTKVDKRVEPKSCDKTGGSEVQLLESGGGLVQPGGSLRLSCAASGFTFTDYAIGWFRQAPGKEREGVSCIRVSDGSTYYADSVKGRFTISRDSSKNTLYLQMNSLRAEDTAVYYCAAGSLYTCVQSIVWPARPYYDMDYWGQGTLVTVSSGGGGSTHTCPPCPAPPVAGPSVFLFPPKPKDTLMISRTPEVTCVVVDVKHEDPEVKFNWYVDGVEVHNAKTKPREEQYNSTYRVVSVLTVLHQDWLNGKEYKCKVSNKALPAPIEKTISKAKGQPREPQVYTLPPCREEMTKNQVSLWCLVKGFYPSDIAVEWESNGQPENNYKTTPPVLDSDGSFFLYSKLTVDKSRWQQGNVFSCSVMHEALHNHYTQKSLSLSPGK
notes: as for B2
Question: Which results are given for B3?
Answer: koff [1]: 0.00109 s⁻¹; kon [1]: 170000 M⁻¹ s⁻¹; koff [2]: 0.000877 s⁻¹; kon [2]: 283000 M⁻¹ s⁻¹; Kd [3]: 1.75 nM; koff [3]: 0.000343 s⁻¹; kon [3]: 196000 M⁻¹ s⁻¹

B4: TPP-46956 (other)
light: not shown
heavy 1: EVQLVQSGAEVKKPGASVKVSCKASGYKFSSYWIEWVKQAPGQGLEWIGEILPGSDTTNYAQNFQDRVTFTSDTSISTAYMELSRLRSDDTAVYYCARDRGNYRAWFGYWGQGTLVTVSSASTKGPSVFPLAPSSKSTSGGTAALGCLVKDYFPEPVTVSWNSGALTSGVHTFPAVLQSSGLYSLSSVVTVPSSSLGTQTYICNVNHKPSNTKVDKRVEPKSCDKTGGSEVQLVESGGGLVQPGGSLRLSCVASGDVHKINFLGWYRQAPGKEREKVAHISIGDQTDYADSAKGRFTISRDESKNMVYLQMNSLKPEDTAVYFCRAFSRIYPYDYWGQGTLVTVSSGGGGSTHTCPPCPAPPVAGPSVFLFPPKPKDTLMISRTPEVTCVVVDVKHEDPEVKFNWYVDGVEVHNAKTKPREEQYNSTYRVVSVLTVLHQDWLNGKEYKCKVSNKALPAPIEKTISKAKGQPREPQVCTLPPSREEMTKNQVSLSCAVKGFYPSDIAVEWESNGQPENNYKTTPPVLDSDGSFFLVSKLTVDKSRWQQGNVFSCSVMHEALHNRFTQKSLSLSPGK
heavy 2: EVQLVQSGAEVKKPGASVKVSCKASGYKFSSYWIEWVKQAPGQGLEWIGEILPGSDTTNYAQNFQDRVTFTSDTSISTAYMELSRLRSDDTAVYYCARDRGNYRAWFGYWGQGTLVTVSSASTKGPSVFPLAPSSKSTSGGTAALGCLVKDYFPEPVTVSWNSGALTSGVHTFPAVLQSSGLYSLSSVVTVPSSSLGTQTYICNVNHKPSNTKVDKRVEPKSCDKTGGSEVQLLESGGGLVQPGGSLRLSCAASGFTFTDYAIGWFRQAPGKEREGVSCIRVSDGSTYYADSVKGRFTISRDSSKNTLYLQMNSLRAEDTAVYYCAAGSLYTCVQSIVWPARPYYDMDYWGQGTLVTVSSGGGGSTHTCPPCPAPPVAGPSVFLFPPKPKDTLMISRTPEVTCVVVDVKHEDPEVKFNWYVDGVEVHNAKTKPREEQYNSTYRVVSVLTVLHQDWLNGKEYKCKVSNKALPAPIEKTISKAKGQPREPQVYTLPPCREEMTKNQVSLWCLVKGFYPSDIAVEWESNGQPENNYKTTPPVLDSDGSFFLYSKLTVDKSRWQQGNVFSCSVMHEALHNHYTQKSLSLSPGK
notes: as for B2
Question: With B4 as the binder, how does the koff [1] read?
Answer: The koff was 0.000818 s⁻¹.

Question: What about the kon [1] of the same binder?
Answer: Its kon is 170000 M⁻¹ s⁻¹.

Question: What about the koff [2] of the same binder?
Answer: The koff was 0.000684 s⁻¹.

Question: What about the kon [2] of the same binder?
Answer: The kon was 305000 M⁻¹ s⁻¹.

Question: And the Kd [3]?
Answer: The Kd was 1.01 nM.

Question: What about the koff [3] of the same binder?
Answer: Its koff is 0.000206 s⁻¹.

Question: What about the kon [3] of the same binder?
Answer: Its kon is 205000 M⁻¹ s⁻¹.

Reference: patent US20250115678A1 (AstraZeneca / MedImmune, published 2025)
